Measured values from publication PMC11100219, “Dual-function antimicrobial-antibiofilm peptide hybrid to tackle biofilm-forming Staphylococcus epidermidis” (Annals of Clinical Microbiology and Antimicrobials, 2024).
In brackets after ≈: the same amount, converted by molar mass.

Tests used:
Format in all cases: cell-based
[1] = system: Staphylococcus aureus ATCC 25923; assay: Broth microdilution MIC / MBC; details: 24 h, 37°C
Protocol: (§1) The minimal inhibitory concentrations (MICs) of peptide derivatives versus planktonic bacteria were assessed using a modification of the broth microdilution assay previously described in the National Committee for Clinical Laboratory Standards (NCCLS). In brief, bacteria at mid-logarithmic growth were collected by centrifugation at 2,500 × g for 5 min. Subsequently, the pellet was resuspended and adjusted in Mueller-Hinton Broth (MHB; BD Bacto™, USA) to an OD620 of 0.05. Fifty µL of bacterial suspensions was transferred to 96-well microplates. Later, 50 µL of peptide derivatives at 0.98–250 µg/mL in 10 mM PBS, was added to wells and incubated for 24 h at 37°C with continuous shaking at 220 rpm. […] The experiments were done in three technical replicates and repeated independently.
(§2) To determine minimal bactericidal concentrations (MBCs) of the peptides, 50 µL of supernatant from non-turbid wells was plated on TSA, and the number of colony-forming units (CFUs) was observed after 24 h of incubation at 37°C. MBC was defined as the minimum concentration of peptide at which no bacterial colony was observed on the plate.

[2] = system: Escherichia coli ATCC 25922; assay: Broth microdilution MIC / MBC; details: MHB, 24 h, 37°C, 0.98-250 µg/mL, visible inspection
Protocol: as §1, §2

[3] = system: human red blood cells (hRBCs); assay: Hemolysis activity (hemoglobin release); details: peptide concentration causing 10% hemolysis of hRBCs; 2% hRBCs in 10 mM PBS, 1 h, 37°C, OD405
Protocol: The effect of peptides on human red blood cells (hRBCs) was assessed by observing the release of hemoglobin upon treated with peptide. Briefly, the hRBCs were obtained from healthy volunteers and subsequently diluted in 10 mM PBS to a concentration of 2% hRBCs. An equal volume of 2% hRBCs and peptide at concentration of 0.98–250 µg/mL in 10 mM PBS mixtures were incubated for 1 h at 37°C. Following incubation, the suspension was centrifuged, then supernatants were collected and transferred to 96-well microplates for measurement of absorbance at OD of 405 nm (OD405). This study was performed in accordance with the Thammasat University Ethics Committee (COA No. 066/2562). Written informed consent was obtained from all volunteers.

With CC[C@H](C)[C@H](NC(=O)CN)C(=O)NCC(=O)N[C@@H](C)C(=O)N[C@H](C(=O)N[C@@H](CC(C)C)C(=O)N[C@@H](CCCCN)C(=O)N[C@H](C(=O)N[C@@H](CC(C)C)C(=O)N[C@H](C(=O)N[C@H](C(=O)NCC(=O)N[C@@H](CC(C)C)C(=O)N1CCC[C@H]1C(=O)N[C@@H](C)C(=O)N[C@@H](CC(C)C)C(=O)N[C@H](C(=O)N[C@@H](CO)C(=O)N[C@@H](Cc1c[nH]c2ccccc12)C(=O)N[C@H](C(=O)N[C@@H](CCCCN)C(=O)N[C@@H](CCCNC(=N)N)C(=O)N[C@@H](CCCCN)C(=O)N[C@@H](CCCNC(=N)N)C(=O)N[C@@H](CCC(N)=O)C(=O)N[C@@H](CCC(N)=O)C(N)=O)[C@@H](C)CC)[C@@H](C)CC)[C@@H](C)O)[C@@H](C)O)C(C)C)C(C)C [Melittin, melittin, reference compound] the MIC ([1]; broth microdilution, MHB, 0.98-250 µg/mL, visible inspection) was 3.91 µg/mL (≈ 1.37 µM), the MBC ([1]; plating of non-turbid wells on TSA) was 3.91 µg/mL (≈ 1.37 µM) and the MIC [2] was 31.2 µg/mL (≈ 11 µM). The “MHC, minimum hemolytic concentration” value [3] was less than 0.98 µg/mL.
